{"source": "patent US20220117911A1", "about": "“METHODS AND COMPOSITIONS FOR MODULATING BLOOD-BRAIN BARRIER” (INSERM (institut National de la Santé et de la Recherche …, priority 2019, published 2022)", "test_system": "hPBMEC monolayers", "assay": "TEER of in vitro human BBB model using hPBMECs on Transwell", "type": "cell-based", "settings": "1 μM CBD, 120 h post seeding", "experimental": "Human Primary Brain Microvascular Endothelial Cells (hPBMECs). Brain capillary endothelial cells were isolated from surgical resections of patients with brain tumors. The experimentation was conducted in compliance with the French legislation, and the protocol was permitted by the French Ministry of Higher Education and Research (CODECOH DC-2014-2229). In brief, brain capillaries were isolated using soft digestion of patient brain peritumoral tissues and then seeded. Brain primary microvascular endothelial cells were shortly amplified and seeded on Transwell® (Corning) with microporous membranes (pore size: 0.4 μm) in monoculture or in co-culture with the same patient's fresh primary human cultured astrocytes. Cells were cultured in EBM-2 medium (Lonza, Basel, Switzerland) supplemented with 20% serum and growth factors (Sigma).\nTo study the effect of CBD on in vitro human BBB model formation, hPBMECs were isolated from surgical resections of a fourth patient (patient 4: a person suffering from glioma, peritumoral biopsy). hPBMECs were then seeded onto Transwell® inserts with glial cells conditioned medium (50/50). After 24 h co-culture, CBD (1 μM) or the same proportion of vehicle was added into the cell inserts. […] The TEER values expressed in Ω·cm2 were recorded after 1, 2, 4, 10, 24, 31, 48, 72, 96, 120 h of CBD treatment."}
{"smiles": "C=C(C)[C@@H]1CCC(C)=C[C@H]1c1c(O)cc(CCCCC)cc1O", "note": "[CBD, cannabidiol]", "values": [{"measurement": "increase of TEER", "result": "16.5±2.0", "unit": "%"}]}
